Assay results published in patent US9388210B2, “Neuroactive 17(20)-Z-vinylcyano-substituted steroids, prodrugs thereof, and methods of treatment using same” (priority 2011, dated 2016).

Key:
[1] = tested on: tadpole; experiment: Tadpole loss of righting reflex (LRR) and loss of swimming reflex (LSR); format: in vivo; conditions: loss of righting reflex; ± SEM
Description: Table 3 discloses the anesthetic effects of the compounds of the present disclosure. In particular, the anesthetic effect of the compounds of the present disclosure on Loss of Righting Reflex (LRR) and Loss of Swimming Reflex (LSR).

[2] = molecular target: picrotoxin binding site on GABAA receptors; conditions: duplicate experiments in triplicate; ± SEM; read-out: IC50, inhibition of [35S]-TBPS binding
[3] = molecular target: rat α1β2γ2L type GABAA receptors (Rattus norvegicus (Rat), UniProt P62813+P63138, INS375LLRMFSFK); experiment: Oocyte electrophysiology: potentiation of 2 μM GABA chloride currents and direct gating, Xenopus laevis oocytes; format: cell-based; conditions: ± SEM; for ratio of currents measured in the presence/absence of added compound, 0.1 μM: 0.1 μM compound; for ratio of currents measured in the presence/absence of added compound, 0.1 μM / ratio of currents measured in the presence/absence of added compound, 1 μM / ratio of currents measured in the presence/absence of added compound, 10 μM: 2 μM GABA, N ≥ 4; for ratio of currents measured in the presence/absence of added compound, 1 μM: 1 μM compound; for (gating) 10 μM: ratio of compound only current/2 μM GABA current: 10 μM compound in the absence of GABA; for ratio of currents measured in the presence/absence of added compound, 10 μM: 10 μM compound
Protocol: The compounds of the present disclosure were evaluated for the ability to potentiate chloride currents mediated by 2 μM GABA at rat α1β2γ2L type GABAA receptors expressed in Xenopus laevis oocytes and the results are shown in Table 2.
The measured concentration of GABA, on average, gates about 4% of the maximum response of a cell. However, the sensitivity to GABA of the receptors, which determines the degree of steroid potentiation that can be measured, varied from one batch of oocytes to another. […] Compounds that are weak potentiators yield flat concentration-response data and frequently only augment GABA-mediated currents at the highest concentration tested (10 μM).

Compound	EC50 [1]	IC50 [2]	ratio of currents measured in the presence/absence of added compound, 0.1 μM [3]	ratio of currents measured in the presence/absence of added compound, 1 μM [3]	(gating) 10 μM: ratio of compound only current/2 μM GABA current [3]	ratio of currents measured in the presence/absence of added compound, 10 μM [3]
C[C@]12CC[C@@H](O)C[C@@H]1CC[C@@H]1[C@@H]2C(=O)C[C@]2(C)/C(=C\C#N)CC[C@@H]12 [Compound 6a, [3α,5α,17(20)Z]-3-Hydroxy-11-oxopregn-17(20)-ene-2′-nitrile]	1440 ± 200 nM	128 ± 11 nM				
C[C@]12CC[C@@H](O)C[C@@H]1CC[C@@H]1[C@@H]2C(=O)C[C@]2(C)/C(=C/C#N)CC[C@@H]12 [Compound 6b, [3α,5α,17(20)E]-3-Hydroxy-11-oxopregn-17(20)-ene-2′-nitrile]		2030 nM				
C/C(C#N)=C1\CC[C@H]2[C@@H]3CC[C@H]4C[C@H](O)CC[C@]4(C)[C@H]3C(=O)C[C@]12C [Compound 6c, [3α,5α,17(20)Z]-3-Hydroxy-11-oxopregn-17(20)-ene-20-carbonitrile]		629 ± 89 nM	0.90 ± 0.05	1.52 ± 0.24	0.04 ± 0.01	5.02 ± 0.62
C[C@]12CC[C@@H](O)C[C@H]1CC[C@@H]1[C@@H]2C(=O)C[C@]2(C)/C(=C\C#N)CC[C@@H]12 [Compound 13a, [3α,5β,17(20)Z]-3-Hydroxy-11-oxo-pregn-17(20)-ene-21-nitrile]		474 ± 35 nM				
C[C@]12CC[C@@H](O)C[C@H]1CC[C@@H]1[C@@H]2C(=O)C[C@]2(C)/C(=C/C#N)CC[C@@H]12 [Compound 13b, [3α,5β,17(20)E]-3-Hydroxy-11-oxo-pregn-17(20)-ene-21-nitrile]		9600 nM				
[3α,5α,17(20)E]-3-(Acetyloxy)-11-oxopregn-17(20)-ene-20-carbonitrile [Compound 6d]		1840 nM	0.90 ± 0.01	0.86 ± 0.04	0.05 ± 0.02	1.53 ± 0.02
